{"source": "patent US10695437B2", "about": "“Polycomplexes of poly-lysine compounds for preventing and/or combatting amyotrophic lateral sclerosis” (GEMAC, priority 2016, dated 2020)", "origin": "cited, not measured here", "test_system": "ALS", "conditions": "ALS patients"}
{"compound": "Nc1nc2ccc(OC(F)(F)F)cc2s1", "note": "[Riluzole]", "values": [{"measurement": "Additional median survival offered to the patient", "result": "three to six"}]}
